2 molecules from ChEMBL document CHEMBL5634096, “Design, synthesis and bioevaluation of PI3Kα-selective inhibitors as potential colorectal cancer drugs” (Eur J Med Chem, 2023) can be followed below.

Test [1] is described as follows: Selectivity index, ratio of IC50 for PI3Kbeta (unknown origin) to the IC50 for PI3Kalpha (unknown origin).
Test [2] is described as follows: Selectivity index, ratio of IC50 for PI3Kdelta (unknown origin) to the IC50 for PI3Kalpha (unknown origin).
Test [3] in a line: Selectivity index, ratio of IC50 for PI3Kgamma (unknown origin) to the IC50 for PI3Kalpha (unknown origin).
Test [4] is described as follows: Selectivity index, ratio of IC50 for mTOR (unknown origin) to the IC50 for PI3Kalpha (unknown origin).

As for `C[C@H](NC(=O)c1cnc2ccc(-c3ccc4oc(N)nc4c3)cn12)C(N)=O`, the Ratio IC50 is 178 in test [1], 25 in test [2] and 50.7 in test [3].
Regarding `Nc1nc2cc(-c3ccc4ncc(N5C[C@@H]6OCCO[C@@H]6C5)nc4c3)ccc2o1`, the Ratio IC50 in test [1] was 180; in test [2] it was 44.4; in test [3], 80.2; in test [4] it was 240.
